{"source": "paper PMC2139850", "target": "tubulin (chicken (endogenous in avian marrow macrophages))", "experiment": "co-IP", "data": [{"substance": "pp60^c-src (from UniProt P00523 1-533) (enzyme)", "values": [{"measurement": "non-tubulin-bound c-src against tubulin-associated c-src (densitometry)", "value": 32, "unit": "% less"}]}]}
